From patent publication US12275729B2 (Merck Sharp & Dohme LLC, priority 2017, dated 2025)

Chains of the proteins cited; added tags and fusions are not shown.
UniProt P14902, whole entry: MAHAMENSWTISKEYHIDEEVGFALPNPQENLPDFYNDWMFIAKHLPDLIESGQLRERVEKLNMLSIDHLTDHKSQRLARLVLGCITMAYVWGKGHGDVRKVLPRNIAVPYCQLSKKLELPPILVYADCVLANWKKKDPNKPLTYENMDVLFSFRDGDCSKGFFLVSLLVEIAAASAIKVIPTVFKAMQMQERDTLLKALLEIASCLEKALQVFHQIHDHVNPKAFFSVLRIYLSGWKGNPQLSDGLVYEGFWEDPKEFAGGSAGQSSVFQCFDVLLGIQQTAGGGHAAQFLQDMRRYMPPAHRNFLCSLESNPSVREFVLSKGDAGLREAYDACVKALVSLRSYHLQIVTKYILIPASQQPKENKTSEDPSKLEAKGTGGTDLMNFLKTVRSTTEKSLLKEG

Target: IDO1 (Homo sapiens, UniProt P14902)
Assay: IDO1 Cellular Assay in HeLa Cells Stimulated with IFNγ
Type: cell-based
Conditions: read-out: Hela IC50, about 48 hours

| IC50 [nM] | Structure (SMILES) |
| --- | --- |
| 104 | CC(C)(NC(=O)c1ccc(F)cc1)c1ccc2c(n1)CCCN2C(=O)C1CC1 |
| 4.28 | Cc1nccc(N2CCCc3nc(C(C)(C)NC(=O)c4ccc(Cl)cc4)ccc32)n1 |
